Biological target: T1, sigma-1 receptor (Mus musculus, UniProt O55242)
T1 construct: gene Sigmar1; native receptor in wild-type mouse brain crude synaptosomal membranes (P2 fraction)
Assay: [3H](+)-pentazocine competition radioligand binding in mouse brain membranes

Amino acid sequences for entries named in this document (tags omitted).
UniProt O55242, whole entry: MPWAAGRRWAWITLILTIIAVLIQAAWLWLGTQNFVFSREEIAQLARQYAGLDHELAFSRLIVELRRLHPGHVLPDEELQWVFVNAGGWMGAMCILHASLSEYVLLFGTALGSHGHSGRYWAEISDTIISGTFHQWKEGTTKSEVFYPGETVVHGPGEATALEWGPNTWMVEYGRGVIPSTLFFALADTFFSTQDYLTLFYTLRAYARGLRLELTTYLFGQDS

With `CC(C)=CCN1CC[C@]2(C)c3cc(O)ccc3C[C@H]1[C@H]2C` [PTZ, (+)-pentazocine] the IC50 was 6.74 ± 0.37 nM.

— article PMC5122889, “Sigma-1 Receptor Agonism Promotes Mechanical Allodynia After Priming the Nociceptive System with Capsaicin” (Scientific Reports, 2016)
